Experimental data from PMC6740044 (ACS Omega, 2019).
Bridge positions count the residues as written; N and C are the ends. Peptide text beside a SMILES is read from it.

Columns and labels:
[1] = molecular target: Herceptin (human IgG1) (human); assay: SPR
[2] = molecular target: Herceptin (human IgG1) (Homo sapiens, UniProt P01857); assay: SPR assay of binding kinetics to immobilized Herceptin; conditions: for koff / kon: pH 7.4
[3] = system: rat IgG2a; assay: SPR negative control with other species antibody; type: binding
[4] = molecular target: Herceptin (human IgG1) (human); assay: ITC

Compound | koff [2] | kon [2] | Kd [1] | further results
15-Lys8Orn(Ac) (peptide) | – | – | 138 nM | –
15-Lys8Ala(t-Bu) (peptide) | – | – | 15.6 nM | –
15-Lys8Dab (peptide) | – | – | 68.9 nM | –
15-Lys8Nle (peptide) | – | – | 36.7 nM | –
15-Lys8Cha (peptide) | – | – | 17 nM | –
15-Lys8Val (peptide) | – | – | 77.8 nM | –
15-Lys8Tle (peptide) | – | – | 326 nM | –
15-IgBP (peptide) | – | – | 267 nM | Kd [4]: 210 nM
15-Lys8Nva (peptide) | – | – | 44.6 nM | –
15-Lys8Leu (peptide) | – | – | 8.19 nM | Kd [4]: 12 nM
15-Lys8Arg (peptide) | – | – | 29.1 nM | –
15-Lys8Orn (peptide) | – | – | 487 nM | –
15-Lys8Dab(Ac) (peptide) | – | – | 116 nM | –

Continued, in another order:

koff [2] | kon [2] | Compound | Kd [1] | further results
0.187 ± 0.002 s⁻¹ | 732000 ± 1000 M⁻¹ s⁻¹ | CC(=O)N1CCC[C@H]1C(=O)N[C@@H](CC(=O)O)C(=O)N[C@H]1CSSC[C@@H](C(=O)N[C@H](C(=O)N[C@@H](Cc2ccccc2)C(=O)N[C@@H](Cc2c[nH]cn2)C(N)=O)[C@@H](C)O)NC(=O)[C@H](Cc2c[nH]c3ccccc23)NC(=O)[C@H](C(C)C)NC(=O)[C@H](CC(C)C)NC(=O)[C@H](CCC(=O)O)NC(=O)CNC(=O)[C@H](CCCCN)NC(=O)[C@H](Cc2c[nH]cn2)NC(=O)[C@H](Cc2ccc(O)cc2)NC(=O)[C@H](C)NC1=O [2–17] | – | –
0.495 ± 0.001 s⁻¹ | 649000 ± 3000 M⁻¹ s⁻¹ | CC(=O)NCC(=O)N1CCC[C@H]1C(=O)N[C@@H](C)C(=O)N[C@H]1CSSC[C@@H](C(=O)N[C@H](C(=O)N[C@@H](Cc2ccccc2)C(=O)N[C@@H](Cc2c[nH]cn2)C(N)=O)[C@@H](C)O)NC(=O)[C@H](Cc2c[nH]c3ccccc23)NC(=O)[C@H](C(C)C)NC(=O)[C@H](CC(C)C)NC(=O)[C@H](CCC(=O)O)NC(=O)CNC(=O)[C@H](CCCCN)NC(=O)[C@H](Cc2c[nH]cn2)NC(=O)[C@H](Cc2ccc(O)cc2)NC(=O)[C@H](C)NC1=O [Asp3Ala] | – | –
0.473 ± 0.002 s⁻¹ | 687000 ± 5000 M⁻¹ s⁻¹ | CC(=O)N1CCC[C@H]1C(=O)N[C@@H](CC(=O)O)C(=O)N[C@H]1CSSC[C@@H](C(=O)N[C@H](C(=O)N[C@@H](Cc2ccccc2)C(N)=O)[C@@H](C)O)NC(=O)[C@H](Cc2c[nH]c3ccccc23)NC(=O)[C@H](C(C)C)NC(=O)[C@H](CC(C)C)NC(=O)[C@H](CCC(=O)O)NC(=O)CNC(=O)[C@H](CCCCN)NC(=O)[C@H](Cc2c[nH]cn2)NC(=O)[C@H](Cc2ccc(O)cc2)NC(=O)[C@H](C)NC1=O [2–16] | – | –
0.2 ± 0.002 s⁻¹ | 635000 ± 2000 M⁻¹ s⁻¹ | CC(=O)NCC(=O)N[C@@H](C)C(=O)N[C@@H](CC(=O)O)C(=O)N[C@H]1CSSC[C@@H](C(=O)N[C@H](C(=O)N[C@@H](Cc2ccccc2)C(=O)N[C@@H](Cc2c[nH]cn2)C(N)=O)[C@@H](C)O)NC(=O)[C@H](Cc2c[nH]c3ccccc23)NC(=O)[C@H](C(C)C)NC(=O)[C@H](CC(C)C)NC(=O)[C@H](CCC(=O)O)NC(=O)CNC(=O)[C@H](CCCCN)NC(=O)[C@H](Cc2c[nH]cn2)NC(=O)[C@H](Cc2ccc(O)cc2)NC(=O)[C@H](C)NC1=O [Pro2Ala] | – | –
0.497 ± 0.001 s⁻¹ | 714000 ± 1000 M⁻¹ s⁻¹ | CC(=O)NCC(=O)N1CCC[C@H]1C(=O)N[C@@H](CC(=O)O)C(=O)N[C@H]1CSSC[C@@H](C(=O)N[C@H](C(=O)N[C@@H](Cc2ccccc2)C(=O)N[C@@H](C)C(N)=O)[C@@H](C)O)NC(=O)[C@H](Cc2c[nH]c3ccccc23)NC(=O)[C@H](C(C)C)NC(=O)[C@H](CC(C)C)NC(=O)[C@H](CCC(=O)O)NC(=O)CNC(=O)[C@H](CCCCN)NC(=O)[C@H](Cc2c[nH]cn2)NC(=O)[C@H](Cc2ccc(O)cc2)NC(=O)[C@H](C)NC1=O [His17Ala] | – | –
0.106 s⁻¹ | 622000 ± 2000 M⁻¹ s⁻¹ | CC(=O)NCC(=O)N1CCC[C@H]1C(=O)N[C@@H](CC(=O)O)C(=O)N[C@H]1CSSC[C@@H](C(=O)N[C@H](C(=O)N[C@@H](Cc2ccccc2)C(=O)N[C@@H](Cc2c[nH]cn2)C(N)=O)[C@@H](C)O)NC(=O)[C@H](Cc2c[nH]c3ccccc23)NC(=O)[C@H](C(C)C)NC(=O)[C@H](CC(C)C)NC(=O)[C@H](CCC(=O)O)NC(=O)CNC(=O)[C@H](C)NC(=O)[C@H](Cc2c[nH]cn2)NC(=O)[C@H](Cc2ccc(O)cc2)NC(=O)[C@H](C)NC1=O [Lys8Ala] | – | –
1.05 s⁻¹ | 716000 ± 3000 M⁻¹ s⁻¹ | CC(=O)N[C@H]1CSSC[C@@H](C(=O)N[C@H](C(=O)N[C@@H](Cc2ccccc2)C(=O)N[C@@H](Cc2c[nH]cn2)C(N)=O)[C@@H](C)O)NC(=O)[C@H](Cc2c[nH]c3ccccc23)NC(=O)[C@H](C(C)C)NC(=O)[C@H](CC(C)C)NC(=O)[C@H](CCC(=O)O)NC(=O)CNC(=O)[C@H](CCCCN)NC(=O)[C@H](Cc2c[nH]cn2)NC(=O)[C@H](Cc2ccc(O)cc2)NC(=O)[C@H](C)NC1=O [4–17] | – | –
0.929 ± 0.002 s⁻¹ | 567000 ± 3000 M⁻¹ s⁻¹ | CC(=O)NCC(=O)N1CCC[C@H]1C(=O)N[C@@H](CC(=O)O)C(=O)N[C@H]1CSSC[C@@H](C(=O)N[C@H](C(N)=O)[C@@H](C)O)NC(=O)[C@H](Cc2c[nH]c3ccccc23)NC(=O)[C@H](C(C)C)NC(=O)[C@H](CC(C)C)NC(=O)[C@H](CCC(=O)O)NC(=O)CNC(=O)[C@H](CCCCN)NC(=O)[C@H](Cc2c[nH]cn2)NC(=O)[C@H](Cc2ccc(O)cc2)NC(=O)[C@H](C)NC1=O [1–15] | – | –
0.198 ± 0.001 s⁻¹ | 741000 ± 3000 M⁻¹ s⁻¹ | CC(=O)N[C@@H](CC(=O)O)C(=O)N[C@H]1CSSC[C@@H](C(=O)N[C@H](C(=O)N[C@@H](Cc2ccccc2)C(=O)N[C@@H](Cc2c[nH]cn2)C(N)=O)[C@@H](C)O)NC(=O)[C@H](Cc2c[nH]c3ccccc23)NC(=O)[C@H](C(C)C)NC(=O)[C@H](CC(C)C)NC(=O)[C@H](CCC(=O)O)NC(=O)CNC(=O)[C@H](CCCCN)NC(=O)[C@H](Cc2c[nH]cn2)NC(=O)[C@H](Cc2ccc(O)cc2)NC(=O)[C@H](C)NC1=O [15-IgBP] (Ac-DCAYHKGELVWCTFH-NH2; disulfide 2-12) | – | affinity (kon and koff also) against rat IgG2a [3]: did not show detectable affinity; residence time calculated from the koff value ([2]; calculated from SPR koff on Herceptin): 5 s
0.546 ± 0.001 s⁻¹ | 778000 ± 3000 M⁻¹ s⁻¹ | CC(=O)NCC(=O)N1CCC[C@H]1C(=O)N[C@@H](CC(=O)O)C(=O)N[C@H]1CSSC[C@@H](C(=O)N[C@H](C(=O)N[C@@H](Cc2ccccc2)C(N)=O)[C@@H](C)O)NC(=O)[C@H](Cc2c[nH]c3ccccc23)NC(=O)[C@H](C(C)C)NC(=O)[C@H](CC(C)C)NC(=O)[C@H](CCC(=O)O)NC(=O)CNC(=O)[C@H](CCCCN)NC(=O)[C@H](Cc2c[nH]cn2)NC(=O)[C@H](Cc2ccc(O)cc2)NC(=O)[C@H](C)NC1=O [1–16] | – | –
0.552 s⁻¹ | 582000 ± 2000 M⁻¹ s⁻¹ | CC(=O)NCC(=O)N1CCC[C@H]1C(=O)N[C@@H](CC(=O)O)C(=O)N[C@H]1CSSC[C@@H](C(=O)N[C@H](C(=O)N[C@@H](C)C(=O)N[C@@H](Cc2c[nH]cn2)C(N)=O)[C@@H](C)O)NC(=O)[C@H](Cc2c[nH]c3ccccc23)NC(=O)[C@H](C(C)C)NC(=O)[C@H](CC(C)C)NC(=O)[C@H](CCC(=O)O)NC(=O)CNC(=O)[C@H](CCCCN)NC(=O)[C@H](Cc2c[nH]cn2)NC(=O)[C@H](Cc2ccc(O)cc2)NC(=O)[C@H](C)NC1=O [Phe16Ala] | – | –
0.191 s⁻¹ | 768000 ± 2000 M⁻¹ s⁻¹ | CC(=O)N[C@@H](C)C(=O)N1CCC[C@H]1C(=O)N[C@@H](CC(=O)O)C(=O)N[C@H]1CSSC[C@@H](C(=O)N[C@H](C(=O)N[C@@H](Cc2ccccc2)C(=O)N[C@@H](Cc2c[nH]cn2)C(N)=O)[C@@H](C)O)NC(=O)[C@H](Cc2c[nH]c3ccccc23)NC(=O)[C@H](C(C)C)NC(=O)[C@H](CC(C)C)NC(=O)[C@H](CCC(=O)O)NC(=O)CNC(=O)[C@H](CCCCN)NC(=O)[C@H](Cc2c[nH]cn2)NC(=O)[C@H](Cc2ccc(O)cc2)NC(=O)[C@H](C)NC1=O [Gly1Ala] | – | –
0.53 ± 0.001 s⁻¹ | 851000 ± 4000 M⁻¹ s⁻¹ | CC(=O)NCC(=O)N1CCC[C@H]1C(=O)N[C@@H](CC(=O)O)C(=O)N[C@H]1CSSC[C@@H](C(=O)N[C@@H](C)C(=O)N[C@@H](Cc2ccccc2)C(=O)N[C@@H](Cc2c[nH]cn2)C(N)=O)NC(=O)[C@H](Cc2c[nH]c3ccccc23)NC(=O)[C@H](C(C)C)NC(=O)[C@H](CC(C)C)NC(=O)[C@H](CCC(=O)O)NC(=O)CNC(=O)[C@H](CCCCN)NC(=O)[C@H](Cc2c[nH]cn2)NC(=O)[C@H](Cc2ccc(O)cc2)NC(=O)[C@H](C)NC1=O [Thr15Ala] | – | –
0.434 ± 0.001 s⁻¹ | 252000 ± 1000 M⁻¹ s⁻¹ | CC(=O)NCC(=O)N1CCC[C@H]1C(=O)N[C@@H](CC(=O)O)C(=O)N[C@H]1CSSC[C@@H](C(=O)N[C@H](C(=O)N[C@@H](Cc2ccccc2)C(=O)N[C@@H](Cc2c[nH]cn2)C(N)=O)[C@@H](C)O)NC(=O)[C@H](Cc2c[nH]c3ccccc23)NC(=O)[C@H](C(C)C)NC(=O)[C@H](CC(C)C)NC(=O)[C@H](CCC(=O)O)NC(=O)[C@H](C)NC(=O)[C@H](CCCCN)NC(=O)[C@H](Cc2c[nH]cn2)NC(=O)[C@H](Cc2ccc(O)cc2)NC(=O)[C@H](C)NC1=O [Gly9Ala] (Ac-GPDCAYHKAELVWCTFH-NH2; disulfide 4-14) | – | times lower kon value than the original peptide (1) ([2]; ratio of SPR kon values): 3.6 times
